The data set in a line: Multi-component pharmacokinetics in rat plasma after oral administration of RB, RPA or RB-RPA extracts (UPLC-HRMS, non-compartmental analysis). Type of data set: in vivo, Sprague-Dawley rats. The following applies: oral RB-RPA mixed extracts (45 g-herb/kg RB + 45 g-herb/kg RPA), mean ± SD, n = 7. Here is the method: (Beijing, China, No. SCXK2018-0011). […] All rats were free to access the water and food until 12 h before the experiment. The animal study was reviewed and approved by the Experimental Animal Ethical Committee of Modern Research Center for Traditional Chinese Medicine, Shanxi University (animal ethic approval number: SXULL2018018), and all experimental procedures were carried out in accordance with the NIH Guide for the Care and Use of Laboratory Animals. […] So, we applied the method of switching ion modes in the detection process to quantify all analytes better. Glycyrrhizin was selected as the internal standard because it could be detected in both positive and negative ion modes. UPLC/MS/MS calibration and quantitation data were processed with Xcalibur workstation (Thermo-Fisher Scientific Inc., Waltham, MA, United States). […] For the other 30 components without standard reference, their concentrations were analyzed following the regression equations of homologous compounds ([Qiao et al., 2012]): paeoniflorin for P1 and M1 to M3; methylgallate for M4 to M10; saikosaponin […] and […]; saikosaponin […]; saikosaponin […]; saikosaponin B2 for P11 and M25 to […].

Molecules are shown by their SMILES.

In the case of `C[C@H]1O[C@@H](O[C@H]2CC[C@@]3(C)[C@@H](CC[C@]4(C)[C@@H]3C=C[C@]35OC[C@@]6(CCC(C)(C)C[C@H]63)[C@H](O)C[C@]54C)[C@]2(C)CO)[C@H](O)[C@@H](O[C@@H]2O[C@H](CO)[C@@H](O)[C@H](O)[C@H]2O)[C@H]1O` [Saikosaponin D], the Cmax (as a rule, the maximum level reached in the sampled fluid or tissue) was determined as 26.57 ± 6.99 ng/mL.

For the origin of these results see paper PMC7982521, “Studies on the Changes of Pharmacokinetics Behaviors of Phytochemicals and the Influence on Endogenous Metabolites After the Combination of Radix Bupleuri and Radix Paeoniae Alba Based on Multi-Component Pharmacokinetics and Metabolomics” (Frontiers in Pharmacology, 2021).
